{"source": "paper PMC6221991", "about": "(Structure (London, England : 1993), 2018)", "molecular_target": "T1, human PPARα (hPPARα) (Homo sapiens, UniProt Q07869)", "T1 sequence (Q07869 239-466 limits assumed)": "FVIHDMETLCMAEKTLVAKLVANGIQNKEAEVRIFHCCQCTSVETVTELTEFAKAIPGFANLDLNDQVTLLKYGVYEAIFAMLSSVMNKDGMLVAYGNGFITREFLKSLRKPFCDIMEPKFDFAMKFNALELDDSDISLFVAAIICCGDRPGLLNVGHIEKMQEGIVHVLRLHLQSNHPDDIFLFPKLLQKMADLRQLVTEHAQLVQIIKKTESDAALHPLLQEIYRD", "experiment": "PPARα GAL-4 transactivation assay in HEK293T cells", "type": "cell-based", "data": [{"smiles": "CN(CCOc1ccc(CC2SC(=O)NC2=O)cc1)c1ccccn1", "note": "(centres unmarked) [Rosiglitazone]", "values": [{"measurement": "EC50 PPARα GAL-4", "value": "No activity"}, {"measurement": "transcriptional agonism, hPPARα-Gal4 transactivation", "setting": "Figure S1A", "value": "no transcriptional agonism"}]}]}
